One test has as its target ERα (Homo sapiens, UniProt P03372). Put plainly: Competition with [3H]-17β-estradiol for ERα ligand binding domain. The conditions noted are these: read-out: ERα IC50; crude E. coli lysate expressing human ERα LBD (D, E, & F); 2 nM [3H]-17β-estradiol; 5-15 hours at room temperature.
A further test has as its target ERβ (Homo sapiens, UniProt Q92731). Put plainly: Competition with [3H]-17β-estradiol for ERβ ligand binding domain.

Protein sequences, listed by entry. Tags and fused reporters are not part of them. Residues count along the entry.
UniProt P03372, 311-547 limits assumed: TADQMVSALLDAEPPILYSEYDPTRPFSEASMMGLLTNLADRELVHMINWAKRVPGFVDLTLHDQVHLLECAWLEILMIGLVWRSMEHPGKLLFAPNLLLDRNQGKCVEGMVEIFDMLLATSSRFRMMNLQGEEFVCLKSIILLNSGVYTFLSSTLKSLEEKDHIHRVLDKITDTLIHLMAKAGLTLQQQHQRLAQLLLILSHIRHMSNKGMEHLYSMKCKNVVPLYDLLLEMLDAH
UniProt Q92731, 264-498 limits assumed: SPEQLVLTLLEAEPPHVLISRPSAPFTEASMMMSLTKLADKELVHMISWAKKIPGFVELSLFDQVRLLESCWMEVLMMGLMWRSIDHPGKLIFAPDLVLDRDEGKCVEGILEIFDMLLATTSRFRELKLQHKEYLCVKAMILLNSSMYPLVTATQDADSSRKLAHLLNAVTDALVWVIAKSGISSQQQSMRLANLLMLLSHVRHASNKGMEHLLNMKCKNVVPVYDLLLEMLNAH

The term IC50 denotes the concentration that inhibits the measured activity by half.

In the case of `N#Cc1cc(O)cc2ccc(-c3ccc(O)c(F)c3)nc12`, the IC50 came to 548 nM at ERα and 17 nM at ERβ (read-out: ERβ IC50, crude E. coli lysate expressing human ERβ LBD (D, E, & F), 2 nM [3H]-17β-estradiol, 5-15 hours at room temperature). Further, the α/β at ERβ (receptor selectivity, ratio ERα IC50 / ERβ IC50) is given as 32.

The values are drawn from patent publication US7632845B2, “Phenyl quinolines and their use as estrogenic agents” (Wyeth, priority 2003, dated 2009).
